Measurements from patent publication US20230159655A1 (AKESO BIOPHARMA, published 2023).

Key:
[1] = target: T1, human NT5E-Biotin (NT5E, GenbankID: NP_002517.1, position: 1-552) (human, UniProt P21589 27-552, biotin (site not stated)); experiment: ELISA on SA-captured NT5E-Biotin, anti-human IgG-HRP
T1 construct: range 1-552; Biotinylated antigen captured on streptavidin-coated plates; also called HNT5E-Biotin; human NTSE-Biotin
T1 sequence (looked up): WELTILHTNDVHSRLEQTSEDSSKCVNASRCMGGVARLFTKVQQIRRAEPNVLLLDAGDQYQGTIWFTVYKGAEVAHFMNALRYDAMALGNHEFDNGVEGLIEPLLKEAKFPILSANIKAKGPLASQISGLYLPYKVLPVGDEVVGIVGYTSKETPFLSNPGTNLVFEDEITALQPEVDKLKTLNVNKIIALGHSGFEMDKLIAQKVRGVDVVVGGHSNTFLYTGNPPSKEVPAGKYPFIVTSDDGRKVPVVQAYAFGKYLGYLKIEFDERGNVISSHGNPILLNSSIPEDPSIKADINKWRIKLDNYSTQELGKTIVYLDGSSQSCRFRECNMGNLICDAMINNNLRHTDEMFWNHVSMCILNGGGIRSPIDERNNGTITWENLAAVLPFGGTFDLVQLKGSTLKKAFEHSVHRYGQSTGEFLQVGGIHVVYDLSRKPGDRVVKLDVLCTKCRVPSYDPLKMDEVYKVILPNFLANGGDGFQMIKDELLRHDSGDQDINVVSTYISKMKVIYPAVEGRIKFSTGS
Description: (§1) Experimental steps: a microplate was coated with streptavidin at 2 μg/mL, and then the microplate was incubated at 4° C. for 12 hours. The antigen-coated microplate was rinsed for once with PBST after incubation, and then blocked with a PBST solution containing 1% BSA as a microplate blocking solution for 2 hours. After blocking, the microplate was washed 3 times with PBST. […] The antibody serially diluted with the PBST solution was added to the wells of the microplate. The microplate containing the test antibodies was incubated at 37° C. for 30 minutes, and then washed 3 times with PBST. After the plate was washed, the secondary antibody working solution of HRP-labeled goat anti-human IgG (H+L) (Jackson, Cat. No. 109-035-088) diluted in a ratio of 1:5000 or HRP-labeled goat anti-mouse IgG (H+L) (Jackson, Cat. No. 115-035-062) diluted in a ratio of 1:5000 was added, and then the plate was incubated at 37° C. for 30 minutes. After incubation, the plate was washed 4 times with PBST, TMB (Neogen, 308177) was added in the dark for color development for 5 min, and then a stop solution was added to terminate chromogenic reaction. The microplate was put into a microplate reader immediately, and the OD value of each well in the microplate was read at the light wavelength of 450 nm. The data were analyzed by SoftMax Pro 6.2.1.

[2] = target: T1, human NT5E-Biotin (NT5E, GenbankID: …); experiment: ELISA on SA-captured NT5E-Biotin; antibody 0 (blank); replicate 1
Description: as §1

[3] = target: T1, human NT5E-Biotin (NT5E, GenbankID: …); experiment: ELISA on SA-captured NT5E-Biotin; antibody 0 (blank); replicate 2
Description: as §1

[4] = target: T1, human NT5E-Biotin (NT5E, GenbankID: …); experiment: ELISA on SA-captured NT5E-Biotin; antibody 0.333 ug/mL; replicate 1
Description: as §1

[5] = target: T1, human NT5E-Biotin (NT5E, GenbankID: …); experiment: ELISA on SA-captured NT5E-Biotin; antibody 0.333 ug/mL; replicate 2
Description: as §1

[6] = target: T1, human NT5E-Biotin (NT5E, GenbankID: …); experiment: ELISA on SA-captured NT5E-Biotin; antibody 0.333 ug/mL diluted 1:3; replicate 1
Description: as §1

[7] = target: T1, human NT5E-Biotin (NT5E, GenbankID: …); experiment: ELISA on SA-captured NT5E-Biotin; antibody 0.333 ug/mL diluted 1:3; replicate 2
Description: as §1

[8] = target: T1, human NT5E-Biotin (NT5E, GenbankID: …); experiment: ELISA on SA-captured NT5E-Biotin; antibody 0.333 ug/mL diluted 1:9; replicate 1
Description: as §1

[9] = target: T1, human NT5E-Biotin (NT5E, GenbankID: …); experiment: ELISA on SA-captured NT5E-Biotin; antibody 0.333 ug/mL diluted 1:9; replicate 2
Description: as §1

human NT5E(1-552)-his = target: T2, human NT5E(1-552)-his (human, UniProt P21589 27-552); experiment: Fortebio BLI, antibody on Protein A sensor, antigen 3.125-200 nM, 37 C, 1:1 fit
T2 construct: range 1-552; also called HNT5E(1-552)-his; human HNT5E (1-552)-his; not shown: His tag
T2 sequence (looked up): T1 sequence (looked up)
Description: The sample dilution buffer was PBST, pH 7.4. […] The detection temperature was 37° C., the detection frequency was 0.6 Hz, and the sample plate shaking rate was 1000 rpm. The data were analyzed by 1:1 model fitting to obtain affinity constants.

[10] = target: T1, human NT5E-Biotin (NT5E, GenbankID: …); experiment: ELISA on SA-captured NT5E-Biotin; antibody 0.333 ug/mL diluted 1:27; replicate 1
Description: as §1

[11] = target: T1, human NT5E-Biotin (NT5E, GenbankID: …); experiment: ELISA on SA-captured NT5E-Biotin; antibody 0.333 ug/mL diluted 1:27; replicate 2
Description: as §1

[12] = target: T1, human NT5E-Biotin (NT5E, GenbankID: …); experiment: ELISA on SA-captured NT5E-Biotin; antibody 0.333 ug/mL diluted 1:81; replicate 1
Description: as §1

[13] = target: T1, human NT5E-Biotin (NT5E, GenbankID: …); experiment: ELISA on SA-captured NT5E-Biotin; antibody 0.333 ug/mL diluted 1:81; replicate 2
Description: as §1

[14] = target: T1, human NT5E-Biotin (NT5E, GenbankID: …); experiment: ELISA on SA-captured NT5E-Biotin; antibody 0.333 ug/mL diluted 1:243; replicate 1
Description: as §1

[15] = target: T1, human NT5E-Biotin (NT5E, GenbankID: …); experiment: ELISA on SA-captured NT5E-Biotin; antibody 0.333 ug/mL diluted 1:243; replicate 2
Description: as §1

[16] = target: T1, human NT5E-Biotin (NT5E, GenbankID: …); experiment: ELISA on SA-captured NT5E-Biotin; antibody 0.333 ug/mL diluted 1:729; replicate 1
Description: as §1

[17] = target: T1, human NT5E-Biotin (NT5E, GenbankID: …); experiment: ELISA on SA-captured NT5E-Biotin; antibody 0.333 ug/mL diluted 1:729; replicate 2
Description: as §1

B1: humanized anti-human CD73 antibody 19F3H2L2 (antibody, IgG1, V domains shown)
VH: QVQLVQSGAEVVKPGASVKVSCKASGYSFTGYTMNWVRQAPGQNLEWIGLINPYNAGTSYNQKFQGKVTLTVDKSTSTAYMELSSLRSEDTAVYYCARSEYRYGGDYFDYWGQGTTLTVSS
VL: DIVMTQSPSSLAVSVGERVTISCKSSQSLLNSSNQKNYLAWYQQKPGQAPKLLIYFASTRESGVPDRFSGSGSGTDFTLTISSVQAEDVADYYCQQHYDTPYTFGGGTKLEIKR
- EC50 [1]: 0.064 nM
- OD 450 nm [2]: 0.119 OD450
- OD 450 nm [3]: 0.123 OD450
- OD 450 nm [4]: 2.6 OD450
- OD 450 nm [5]: 2.69 OD450
- OD 450 nm [6]: 2.58 OD450
- OD 450 nm [7]: 2.62 OD450
- OD 450 nm [8]: 2.16 OD450
- OD 450 nm [9]: 2.33 OD450
- Kd (human NT5E(1-552)-his): 0.259 nM
- koff (human NT5E(1-552)-his): 0.000124 s⁻¹
- kon (human NT5E(1-552)-his): 480000 M⁻¹ s⁻¹
- OD 450 nm [10]: 1.58 OD450
- OD 450 nm [11]: 1.68 OD450
- OD 450 nm [12]: 0.87 OD450
- OD 450 nm [13]: 0.933 OD450
- OD 450 nm [14]: 0.434 OD450
- OD 450 nm [15]: 0.454 OD450
- OD 450 nm [16]: 0.239 OD450
- OD 450 nm [17]: 0.247 OD450

B2: humanized anti-human CD73 antibody 19F3H1L1 (antibody, IgG1, V domains shown)
VH: B1 VH with V5Q, V18M, V20M, R38K, P41H, V68A
VL: not shown
- EC50 [1]: 0.049 nM
- OD 450 nm [2]: 0.125 OD450
- OD 450 nm [3]: 0.123 OD450
- OD 450 nm [4]: 2.65 OD450
- OD 450 nm [5]: 2.64 OD450
- OD 450 nm [6]: 2.6 OD450
- OD 450 nm [7]: 2.7 OD450
- OD 450 nm [8]: 2.41 OD450
- OD 450 nm [9]: 2.33 OD450
- OD 450 nm [10]: 1.82 OD450
- OD 450 nm [11]: 1.82 OD450
- OD 450 nm [12]: 1.04 OD450
- OD 450 nm [13]: 1.03 OD450
- OD 450 nm [14]: 0.525 OD450
- OD 450 nm [15]: 0.516 OD450
- OD 450 nm [16]: 0.26 OD450
- OD 450 nm [17]: 0.273 OD450

Where a chain is given by its changes, count along the chain named.
